Legend:
open fracture = assay: Mammalian open fracture model, without bacteria inoculation; type: in vivo, rats
Experimental: (§1) A mammalian open fracture model was conducted using rats (n=42, n=41 after anesthesia recovery) with and without bacteria inoculation, based on the gap healing model of Chen et al. (J Bone Joint Surg Am. 88-A:1510-23, 2006). In this model, infection was initiated by delivery of 10^4 CFU of pathogenic Staphlococcus aureus in ACS at the time of surgery. […] Animals received treatment with 10 μg rhBMP-2 and/or 250 μg CSA-90 co-delivered via the ACS implant. The primary outcome measure was the number of animals culled with infected fractures. Animal health and radiographic bone healing were monitored by an experienced veterinarian in a blinded fashion to inoculation or treatment. Animals diagnosed as having progressively deteriorating condition with XRs showing evidence of infection were culled and infection confirmed by culture swab post-mortem. Secondary outcome measures included union at 3 weeks and 6 weeks (excluding pin-slippage), and bone callus microCT measures at 6 weeks.

Staphlococcus aureus = assay: Mammalian open fracture model, inoculated with S. aureus; type: in vivo, rats
Experimental: as §1

ectopic bone formation = assay: Mammalian ectopic bone formation model; type: in vivo, mouse; conditions: 10 μg rhBMP-2 via ACS
Experimental: Using a mouse model, 10 μg rhBMP-2 was delivered via a Medronic absorbable collagen sponge (ACS). The effects of the addition of 25 μg and 250 μg ceragenin (CSA-90) were tested as was 250 μg ceragenin (CSA-90) dosed in the absence of rhBMP-2. Bone formation was examined by XR (Faxitron) and quantified by microCT (Skyscan 1174). Bone nodules were also examined by histology. Scanning data confirmed increases in bone volume with the addition of the ceragenin (See FIG. 1).

B1: rhBMP-2: recombinant human bone morphogenetic protein BMP-2 (protein, UniProt P12643 283-396, looked up)
Bone morphogenetic protein 2: QAKHKQRKRLKSSCKRHPLYVDFSDVGWNDWIVAPPGYHAFYCHGECPFPLADHLNSTNHAIVQTLVNSVNSKIPKACCVPTELSAISMLYLDENEKVVLKNYQDMVVEGCGCR
Open fracture; 3 weeks, no S. aureus
  Union rate at 3 weeks: 100%
Open fracture; no bacteria
  Pin Slip Cull Rate: 17%
Open fracture; no bacteria, animals/group
  # Infected Culls: 0/6
  # Pin Slips: 1/6
Staphlococcus aureus; 10^4 cfu Staph
  Pin Slip Cull Rate: 0%
Staphlococcus aureus; 10^4 cfu Staph, animals/group
  # Infected Culls: 3/3
  # Pin Slips: 0/3
Staphlococcus aureus; inoculated with S. aureus
  Animals culled with infected fractures: all animals being culled with infections
Staphlococcus aureus; inoculated with S. aureus, n=3
  Time of cull with infection: ~17 days
Staphlococcus aureus; rhBMP-2 alone
  Union in the presence of bacteria: did not promote union
Ectopic bone formation
  Induction of bone nodules: induced bone nodules
